Source: ChEMBL document CHEMBL1143066, “Characterization and optimization of selective, nonpeptidic inhibitors of cathepsin S with an unprecedented binding mode” (J Med Chem, 2007)

Sequences of proteins named here, by UniProt entry; tags and fusion partners are left off.
UniProt P25774, whole entry: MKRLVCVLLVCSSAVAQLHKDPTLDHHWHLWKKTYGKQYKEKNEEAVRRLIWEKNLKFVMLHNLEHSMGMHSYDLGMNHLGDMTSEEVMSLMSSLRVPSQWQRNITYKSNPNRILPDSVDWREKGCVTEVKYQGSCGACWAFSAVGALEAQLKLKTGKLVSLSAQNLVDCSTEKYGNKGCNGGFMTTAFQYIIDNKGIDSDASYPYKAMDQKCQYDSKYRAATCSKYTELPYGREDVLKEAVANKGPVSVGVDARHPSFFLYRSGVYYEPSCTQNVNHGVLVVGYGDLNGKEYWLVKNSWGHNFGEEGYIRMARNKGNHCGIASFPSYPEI

Biological target: Cathepsin S (Homo sapiens, UniProt P25774)
Test: Inhibition of cathepsin S
In short: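 Cathepsin S 0.7 nM with inhibitor (added in DMSO), 5 min at 37 °C in pH 6.1 phosphate buffer containing NaCl, DTT, EDTA and Tween-20. Substrate Cbz-Leu-Arg-AMC 2.5 µM, read 5 min (ex 355/em 450 nm). Five concentrations covering 10–90% inhibition, in duplicate. IC50 from V_i/V_o plot, converted to K_i via IC50 − E_t/2.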

Ki: 490 nM
SMILES: O=CCOc1ccccc1-c1ccc(F)c(F)c1F
